According to publication PMC10681007, “Targeted Degradation of XIAP is Sufficient and Specific to Induce Apoptosis in MYCN-overexpressing High-risk Neuroblastoma” (Cancer Research Communications, 2023):

Columns and labels:
BE(2)-C and KELLY cells = assay: Apoptosis (cleaved PARP/caspase-3, Caspase-Glo 3/7); details: 10 µmol/L
Protocol: The determination of caspase-3/7 levels as an indication for apoptosis activity was performed using a Caspase-Glo 3/7 assay kit from Promega according to manufacturer's instructions. Cells were seeded at 1 × 10^4 cells per well and treated with 10 µmol/L of IAP antagonists for various indicated timings, followed by bioluminescence measurement using luminescent plate reader, Tecan Infinite200 Pro. The activity of apoptosis was also measured by flow cytometry using the Dead Cell Apoptosis Kit with Annexin V FITC and PI (Thermo Fisher Scientific) according to manufacturer's instructions. Cells harvested from lentiviral infection were subjected to Annexin V (2.5 µL) and PI (40 ng/mL, 0.5 µL) staining, followed by flow cytometric analysis using BD LSRFortessa cell analyzer with excitation/emission spectra of 494 nm/518 nm for FITC and 535 nm/617 nm for PI.
FIGURE 2 Specific loss of XIAP expression, not c-IAP1, is required for mediating apoptosis in high-risk neuroblastoma cells. A, Summary of IAP antagonists’ efficacy in killing neuroblastoma cells. […] C, Graphical representation showing the fold change of caspase-3/7 activity relative to vehicle controls after treatment with 10 µmol/L of either A4, B3, or BV6 at indicated timings (data were expressed as mean ± SD of three independent experiments conducted in duplicates; *, P < 0.05). […]

THLE3 and HS5 = assay: Toxicity and tolerability in noncancerous normal tissue-derived cell lines; details: THLE3 and HS5 versus neuroblastoma cells
Protocol: Cell viability was measured in real time using RealTime-Glo MT Cell Viability Assay as according to manufacturer's instructions from Promega. Cells were seeded at 1 × 10^4 cells per well and treated with a range of doses of indicated antagonists, followed by continuous bioluminescence reading every 24 hours for 3 days using luminescent plate reader, Varioskan (SkanIT software). IC50 was determined using GraphPad Prism software.
To evaluate this, noncancerous normal tissue-derived cell lines THLE3 and HS5 were utilized to evaluate toxicity and tolerability. XIAP-specific antagonists A4 and B3 were the least toxic to noncancerous cells and were the most discriminatory in killing neuroblastoma cells (Supplementary Table S2; Fig. 2A). In contrast, the pan-IAP antagonists especially LCL161, CUDC-427, and Debio 1143, were more toxic toward noncancerous cells than neuroblastoma cells and thus, deemed unsuitable for use in neuroblastoma treatment. On the basis of their overall potency and specificity toward neuroblastoma cells over noncancerous normal cells, A4, B3, and BV6 were selected as the more efficacious antagonists to be studied further in subsequent experiments (Fig. 2A).

[1] = Pharmacokinetics of A4 in neuroblastoma PDX mice (LC-MS/MS)
Protocol: Neuroblastoma PDXs were treated with 10 mg/kg A4 via intraperitoneal injection. 150-200 μL of blood was taken from each mouse via cardiac puncture and tumors were harvested over the following time courses of 0, 0.5-, 1-, 2-, 4-, 24- and 48-hours post-dosing (n=3/time point). The concentrations of A4 in mice plasma were determined by LCMS/ MS in MRM positive mode.
The testing dose of A4 10 mg/kg was injected intraperitoneally into the orthotopic neuroblastoma PDXs. 150-200 μL of blood was taken from mice via cardiac puncture and tumors were harvested over the following time courses of 0, 0.5, 1, 2, 4, 24 and 48 hours post-dosing (n=3/time point). The concentrations of A4 in mouse plasma and tumor samples were determined and validated by a highly sensitive liquid chromatography tandem mass spectrometry (LC–MS/MS) method with multiple reaction monitoring (MRM) mode. The LC-MS/MS system consisted of Agilent 1290 ultra high-performance liquid chromatography (UHPLC) connected in tandem to Sciex QTRAP 5500 mass spectrometer system. Chromatographic separation was optimized using a liquid–liquid extraction and a reversed phase separation on a Kinetex F5 column (100 mm x 2.1 mm, 2.6 μm) with isocratic elution. Ethyl indole-2-carboxylate was used as the internal standard (IS). MRM transitions 441.2/189.0 (A4) and 190.1/114.1 (IS) were monitored with a dwell time of 300 msec and analyst 1.6.2 software (Sciex) was used to quantify the peaks with 1/x2 weighted linear regression.

## COC(=O)c1[nH]c2ccc(Cl)cc2c1NC(=O)CN1CCN(Cc2ccccc2)CC1
BE(2)-C and KELLY cells
  apoptosis (PARP and caspase-3 cleavage, caspase-3/7 activity): apoptosis was induced
THLE3 and HS5
  toxicity to noncancerous cells: least toxic to noncancerous cells
[1]; 10 mg/kg intraperitoneal
  Mean AUC0→48 (model), mouse plasma: 3.651 µM·h
  Mean AUC0→48 (model), mouse tumor: 24.947 µM·h
[1]; read-out: Cmax, mouse plasma, 10 mg/kg intraperitoneal
  Cmax: 600 nM
[1]; read-out: Cmax, mouse tumor, 10 mg/kg intraperitoneal
  Cmax: 4000 nM
[1]; read-out: maximum modeled concentration (Cmax) in mouse plasma, 10 mg/kg intraperitoneal
  Cmax: 600 nM
[1]; read-out: maximum modeled concentration (Cmax) in tumor, 10 mg/kg intraperitoneal
  Cmax: 4000 nM

Read-outs that look alike come from different tables or passages of the source.
